Measurements as given in patent US20230339968A1, “KRAS Gl2C INHIBITORS” (Eli Lilly and Company, priority 2019, published 2023).

System: H1373 (lung) xenograft
Assay: Anti-tumor growth activity, H1373 xenograft model
Assay type: in vivo, mouse
Settings: 5 mg/kg QD × 28, oral
Procedure: For xenograft models of H1373, HCC44, MiaPaca-2, SW1463, KYSE-410 and UM-UC-3, typically 5-10×10^6 cells in a 1:1 matrigel mix (0.2 mL total volume) are implanted by subcutaneous injection in hind leg of nude mice. Generally, a total of 4 mice each group are used for efficacy study. Treatment is initiated with oral administration (gavage) of testing compound or vehicle (20% captisol, 25 mM phosphate, pH2.0) in 0.2 mL volume when tumor size reaches approximately 200-300 mg. Tumor growth and body weight are monitored over time to evaluate efficacy and signs of toxicity. For EL3187 PDX model, frozen vials containing tumor fragments are thawed at 37° C. in a water bath. The tumor fragments are transferred to 50 mL Falcon tube and the ice cold DMEM medium is slowly added into the tube to a total volume of 35 mL. Then the tumor fragments are centrifuged at 130×g for 2 minutes at 4° C. and supernatant is aspirated. This washing step is repeated twice and the tumor fragments are resuspended in 10 mL DMEM for implantation into athymic nude-Foxn1nu mice (Envigo RMS, Inc., Mount Comfort, Indiana). Once tumor volumes reach 800 to 1000 mm^3, animals are sacrificed and tumors are harvested using aseptic technique. Fresh tumors are cut into 10 to 15 mm^3 fragments and placed into cold Gibco hibernate medium. The tumor fragments are subcutaneously implanted into animals with a 10 g trochar needle. […]

SMILES: C=CC(=O)N1CCN2C(=O)c3cc(F)c(-c4ccc(F)c5sc(N)c(C#N)c45)c(Cl)c3OCC[C@H]2C1 [Example 35, 4-[(13aS)-10-Chloro-8-fluoro-6-oxo-2-prop-2-enoyl-1,3,4,12,13,13a-hexahydropyrazino[2,1-d][1,5]benzoxazocin-9-yl]-2-amino-7-fluoro-benzothiophene-3-carbonitrile]
- tumor growth inhibition (%) or regression (−%): 97.9%
